# Test results taken from ChEMBL document CHEMBL1142226, “Impact of physicochemical and structural properties on the pharmacokinetics of a series of alpha1L-adrenoceptor antagonists” (Drug Metab Dispos, 2007).
# Experiments:
# [1] = tested on: Canis familiaris; test: Unbound plasma clearance in Beagle dog at 0.5 mg/kg, iv; format: ADME, organism-based, Canis lupus familiaris; design: dose 0.5 mg/kg, route intravenous; conditions: in vivo
# [2] = tested on: Liver microsomes; test: Unbound intrinsic clearance in human liver microsomes at 1 uM; format: ADME, Microsome
# [3] = tested on: Liver; test: Unbound intrinsic clearance in Beagle dog liver microsomes at 1 uM; format: ADME, Canis lupus familiaris, Microsome
# [4] = tested on: Canis familiaris; test: Unbound plasma clearance in Beagle dog at 0.3 mg/kg, iv; format: ADME, organism-based, Canis lupus familiaris; design: dose 0.3 mg/kg, route intravenous; conditions: in vivo
# [5] = tested on: Rattus norvegicus; test: Unbound plasma clearance in Sprague-Dawley rat at 0.5 mg/kg, iv; format: ADME, organism-based; design: dose 0.5 mg/kg, route intravenous; conditions: in vivo
CL [1],CL [2],CL [3],CL [4],CL [5],SMILES
23 mL/min/kg,22 mL/min/kg,23 mL/min/kg,,,COc1cc2nc(N3CCCN(C(=O)N4CCOCC4)CC3)cc(N)c2c(-c2ncco2)c1OC
,,,29 mL/min/kg,40 mL/min/kg,COc1cc2nc(N3CCc4c(cccc4NS(C)(=O)=O)C3)nc(N)c2c(-c2ccccn2)c1OC [TAPRIZOSIN]
